# System: grpLight in ACx
# Experiment: in vivo dual-color photometry of grpLight and TAMRA-GRP, diffusion in cortex
# Design: species or system mouse
# How it was run: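 Dual-color fiber photometry of grpLight1.2 and TAMRA signal was recorded in auditory cortex. GRP and TAMRA-GRP (2 μl in total, 300 μM each) were infused through a cannula into visual cortex at 100 nl/min.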
substance,measurement,value
"Val-Ser-Thr-Gly-Ala-Gly- Gly- Gly-Thr-Val-Leu-Ala-Lys-Met-Tyr-Pro-Arg-Gly-Ser-His-Trp-Ala-Val-Gly-His-Leu-Met-NH2 [GRP, gastrin-releasing peptide]",diffusion in intact brain tissue,diffuses slowly
